Data from patent publication US6447767B1, “Non-myeloablative tolerogenic treatment” (Hadasit Medical Research Services and Development Ltd., priority 1997, dated 2002).
Entries after “also recorded” stand apart in the source; their conditions may differ.

Tests used:
[1] = tested on: metastatic solid tumors / lymphoma; experiment: AlloCT with rIL-2 activated mismatched lymphocytes plus tumor-specific antibodies (case reports); type: in vivo, human
Text: (§1) In the absence of a fully matched donor available, we have decided to use haploidentically mismatched related lymphocytes for induction of transient anti-tumor effects. Donor-derived anti-cancer effector lymphocytes consisted of rIL-2 activated cells (four days activation with rIL-26,000 IU/ml) or using donor lymphocytes activated in vitro against irradiated tumor cells or host alloantigens in one way mixed lymphocyte tumor reaction or using donor lymphocytes pre-cultured with irradiated parental or other family member expressing either one of the patient's haplotypes in one way mixed lymphocyte cultures (in order to induce effector cells against inherited paternal or maternal haplotypes, to maximize anti-host alloreactivity to be used as adoptive allogeneic cell therapy (alloCT). In order to maximize anti-cancer effects, patients can be immunosuppressed with Fludarabine 25 mg/m^2×5 days. […] Following cell infusion, patients receive subcutaneously rIL-2 6×10^6 IU/m^2 in an attempt to continue to activate in vivo donor anti-tumor reactive lymphocytes. Two weeks post cell therapy, patient may receive injections of alpha interferon 3×10^6 IU every other day subcutaneously as anti-proliferative and mostly as anti-angiogenic effects to minimize or jeopardize tumor cell growth from residual tumor cells escaping alloCT.
This patient was treated with the protocol. The dose of Herceptin infused was 2 mg/Kg (total dose 110 mg). Total number of rIL-2 activated lymphocytes obtained from their haploidentically mismatched sister was 10^7 nucleated cells/Kg. In parallel, patient received Eprex (recombinant human erythropoietin) and Neupogen (granulocyte-colony stimulating factor or “G-CSF”) (not part of the protocol) due to pancytopenia. The procedure was uneventful except for mild fever and tremor which accompanied the cell infusion, but it was transient and discontinued as soon as the infusion was over. No signs of GVHD developed.
The alloCT course was done according to the scheme described. This time Herceptin was given prior to infusions of rIL-2 activated peripheral blood cells obtained from their haploidentically mismatched brother, a total of 2-10^7 nucleated cells/Kg. A month later, the patient was treated with Herceptin, rIL-2 activated peripheral blood lymphocytes from another haploidentically mismatched brother, to a total of 2.52×10 nucleated cells/Kg, followed by five days of rIL-2 6×10^6 IU/m^2.
Patient was diagnosed following onset of cervical lymphadenopathy. Non-Hodgkin lymphoma diffused large cell type (B cell type) was diagnosed and the patient was treated with six courses of CHOP for five consecutive months. First remission was accomplished on after this five month treatment. […]

[2] = tested on: BALB/c mouse spleen cells; experiment: Mitogen-induced T cell proliferation ([3H]-thymidine incorporation); type: cell-based; settings: ASTA-Z 100 μg/ml 30 min 37°C and/or IL-2 1,000 IU/ml
Method: Mitogen-induced T cell proliferative responses were measured by culturing spleen cells in the presence of the T cell mitogens concanavalin A (ConA, 10 μg/ml) or phytohemagglutinin (PHA, 1 μg/ml) for three days. [^3H]-thymidine was added to the cultures for the last 6 hours of culture and T cell proliferation was measured in terms of counts per minute (cpm) of [^3H]-thymidine incorporated into the DNA of the cells using cell harvesting and radioactivity techniques known to those in the art.
The ability of the drug mafosphamide (ASTA-Z), which is identical to 4-hydroxyperoxycyclophosphamide (4HC), to deplete BALB/c mouse spleen cells of T cell responsiveness was tested under in vitro conditions known to result in preservation of hemopoeitic stem cell activity after treatment of hemopoietic cells from humans as well experimental animals (e.g., mice). BALB/c spleen cells were cultured for 30 minutes at 37° C. in tissue culture medium containing 100 μg/ml of ASTA-Z and then tested for in vitro T cell responses.

[3] = Side effects of rIL-2 in alloCT patients (case reports); type: in vivo, human; settings: single patients, subcutaneous rIL-2 6×10^6 IU/m^2 after cell infusion
Text: as §1

Substance: Herceptin: anti-HER 2/Neu antibody
- minimum level of TPS ([1]; patient NR): 237 u/L
- minimum level of CA15.3 ([1]; patient NR, metastatic breast cancer, 223 U/ml before, Herceptin 2 mg/Kg with rIL-2 activated lymphocytes): 41 U/ml
- minimum level of carcino-embryonic antigen (CEA) ([1]; patient NR, 2.6 mg/ml before): 1.4 mg/mL
- clinical outcome ([1]; single patients, antibody given with rIL-2 activated haploidentically mismatched lymphocytes): partial response; also recorded: no signs of tumor regression

Substance: rIL-2: recombinant interleukin-2
- Cell Proliferation, Con-A ([2]; ConA 10 μg/ml): 52,287 cpm
- Cell Proliferation, PHA ([2]; PHA 1 μg/ml): 39,390 cpm
- Cell Proliferation, No Mitogens ([2]; no mitogen): 31,090 cpm
- side effects in response to rIL-2 [3]: diffuse maculopapular urticaria-like skin rash; also recorded: nausea, malaise, and fever and weight loss; also recorded: malaise, fever, vomiting and diarrhea; also recorded: fatigue and fever; also recorded: gained weight (4 Kg) with some peripheral edema
